Results as given in patent publication US11448643B2, “Methods to specifically profile protease activity at lymph nodes” (Massachusetts Institute of Technology, priority 2016, dated 2022).

Conditions: healthy mice, subcutaneous injection, FIG. 5

Albumin-GPLGVRGKGK(Biotin)eGvndneeGffsarK(FAM) [Albumin-B7]
urine reporter signal at 24 hours post-injection (24 hours post-injection): detectable signal
time of peak urine signal of reporter (post-injection): 3 h
